For assay [1], the target named is Acetylcholinesterase (Homo sapiens) (UniProt P22303). Nature of the assay: Reactivation of tabun-inhibited human AChE assessed as second order rate constant incubated for 30 mins by Ellman's method. The conditions noted are these: filed as activator.
For assay [2] the target is unchanged. Nature of the assay: Reactivation of sarin-inhibited human AChE assessed as second order rate constant incubated for 30 mins by Ellman's method. The conditions noted are these: filed as activator. On the technique in general: Ellman's reagent forms a yellow product with free thiols.

The chains behind the UniProt entries cited, without tags or fusion partners. Where a name states a change or a piece, a line headed by the entry shows the natural chain unless it says otherwise.
UniProt P22303: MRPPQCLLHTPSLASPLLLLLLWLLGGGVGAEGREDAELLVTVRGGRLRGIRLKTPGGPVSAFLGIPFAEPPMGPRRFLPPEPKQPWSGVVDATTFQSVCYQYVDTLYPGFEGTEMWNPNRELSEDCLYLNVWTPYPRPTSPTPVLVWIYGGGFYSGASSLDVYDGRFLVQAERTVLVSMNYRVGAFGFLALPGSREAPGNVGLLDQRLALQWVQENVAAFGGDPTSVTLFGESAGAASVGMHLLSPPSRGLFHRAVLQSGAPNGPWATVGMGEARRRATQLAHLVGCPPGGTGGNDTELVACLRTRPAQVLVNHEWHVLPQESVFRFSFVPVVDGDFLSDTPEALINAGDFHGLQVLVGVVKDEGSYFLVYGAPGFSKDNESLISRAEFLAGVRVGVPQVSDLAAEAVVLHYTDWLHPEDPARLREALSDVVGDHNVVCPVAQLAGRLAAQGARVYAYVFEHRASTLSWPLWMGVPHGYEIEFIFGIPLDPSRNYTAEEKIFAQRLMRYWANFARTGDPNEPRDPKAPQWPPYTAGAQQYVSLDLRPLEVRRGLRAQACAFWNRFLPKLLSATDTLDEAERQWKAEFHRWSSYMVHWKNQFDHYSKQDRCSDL

The structures appear in SMILES notation.

For `Cc1cc(/C=N/O)c(O)c(CNc2ccc(Cn3cncn3)cc2)c1`, the Kr in assay [1] stood at 2 M⁻¹ s⁻¹.
For `Cc1cc(/C=N/O)c(O)c(CN2CCN(c3ccncc3)CC2)c1`, the Kr in assay [2] was found to be 14.5 M⁻¹ s⁻¹.
On to `O/N=C/c1cc(Cl)cc(CN2CCN(c3ccncc3)CC2)c1O`, for which, in assay [2], the Kr turned out to be 15 M⁻¹ s⁻¹.
